The target in assay [1] is T1, hemoglobin (Hb), human, cell-free (human, UniProt P69905 1-142; P68871 1-147). Kind of assay: SPR.
Assay [2] addresses T1, hemoglobin (Hb), human, cell-free. Kind of assay: SPR. This is another data set of the same source.

By UniProt entry, the sequences of proteins in these tests, tags left out.
UniProt P69905, whole entry, chain 1 of 2: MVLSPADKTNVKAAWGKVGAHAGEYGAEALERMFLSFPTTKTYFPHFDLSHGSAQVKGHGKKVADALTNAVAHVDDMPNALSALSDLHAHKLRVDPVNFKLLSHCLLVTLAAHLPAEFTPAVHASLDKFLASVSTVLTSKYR
hemoglobin (Hb), human, cell-free, UniProt P68871, whole entry, chain 2 of 2: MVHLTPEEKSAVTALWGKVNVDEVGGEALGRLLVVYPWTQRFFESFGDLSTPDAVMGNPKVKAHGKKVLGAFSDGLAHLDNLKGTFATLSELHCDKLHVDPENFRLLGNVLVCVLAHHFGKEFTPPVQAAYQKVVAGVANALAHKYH

B1: cleavage-site mutated recombinant haptoglobin Hp2FS (Q160A, R161A), uncleaved proHp (natural protein)
chain: VDSGNDVTDIADDGCPKPPEIAHGYVEHSVRYQCKNYYKLRTEGDGVYTLNDKKQWINKAVGDKLPECEADDGCPKPPEIAHGYVEHSVRYQCKNYYKLRTEGDGVYTLNNEKQWINKAVGDKLPECEAVCGKPKNPANPVAAILGGHLDAKGSFPWQAKMVSHHNLTTGATLINEQWLLTTAKNLFLNHSENATAKDIAPTLTLYVGKKQLVEIEKVVLHPNYSQVDIGLIKLKQKVSVNERVMPICLPSKDYAEVGRVGYVSGWGRNANFKFTDHLKYVMLPVADQDQCIRHYEGSTVPEKKTPKSPVGVQPILNEHTFCAGMSKYQEDTCYGDAGSAFAVHDLEEDTWYATGILSFDKSCAVAEYGVYVKVTSIQDWVQKTIAEN
modifications: Uncleaved single-chain proHp2FS with signal peptide removed; heterogeneous disulfide-linked multimers (n variable); N-glycosylated; C-terminal 8xHis tag omitted
In assay [1], B1 came in with an equilibrium dissociation constant (Kd) of 1.9 mM. Moreover, the off-rate constant (koff) in assay [2] turned out to be 0.0159 s⁻¹.

B2: cleavage-site mutated recombinant haptoglobin Hp1S (Q101A, R102A), uncleaved proHp (natural protein)
chain: VDSGNDVTDIADDGCPKPPEIAHGYVEHSVRYQCKNYYKLRTEGDGVYTLNNEKQWINKAVGDKLPECEAVCGKPKNPANPVAAILGGHLDAKGSFPWQAKMVSHHNLTTGATLINEQWLLTTAKNLFLNHSENATAKDIAPTLTLYVGKKQLVEIEKVVLHPNYSQVDIGLIKLKQKVSVNERVMPICLPSKDYAEVGRVGYVSGWGRNANFKFTDHLKYVMLPVADQDQCIRHYEGSTVPEKKTPKSPVGVQPILNEHTFCAGMSKYQEDTCYGDAGSAFAVHDLEEDTWYATGILSFDKSCAVAEYGVYVKVTSIQDWVQKTIAEN
modifications: Uncleaved single-chain proHp1S with signal peptide removed; paper's Q101/R102 (precursor Hp1 numbering) = Q160/R161 of P00738; disulfide-linked dimer; N-glycosylated; C-terminal 8xHis tag omitted
In assay [1], B2 returned a Kd of 2.11 mM. Moreover, in assay [2], the koff was found to be 0.0159 s⁻¹.

B3: human plasma derived haptoglobin (predominantly phenotype 2–2) (natural protein)
chain 1: VDSGNDVTDIADDGCPKPPEIAHGYVEHSVRYQCKNYYKLRTEGDGVYTLNDKKQWINKAVGDKLPECEADDGCPKPPEIAHGYVEHSVRYQCKNYYKLRTEGDGVYTLNNEKQWINKAVGDKLPECEAVCGKPKNPANPVQ
chain 2: ILGGHLDAKGSFPWQAKMVSHHNLTTGATLINEQWLLTTAKNLFLNHSENATAKDIAPTLTLYVGKKQLVEIEKVVLHPNYSQVDIGLIKLKQKVSVNERVMPICLPSKDYAEVGRVGYVSGWGRNANFKFTDHLKYVMLPVADQDQCIRHYEGSTVPEKKTPKSPVGVQPILNEHTFCAGMSKYQEDTCYGDAGSAFAVHDLEEDTWYATGILSFDKSCAVAEYGVYVKVTSIQDWVQKTIAEN
B3: the Kd in assay [1] is under 5e-08 mM. The same molecule came in with a koff in assay [2] of under 5e-05 s⁻¹.

B4: recombinant haptoglobin Hp2FS, C1r-LP processed (rHp 2–2) (natural protein)
chain 1: VDSGNDVTDIADDGCPKPPEIAHGYVEHSVRYQCKNYYKLRTEGDGVYTLNDKKQWINKAVGDKLPECEADDGCPKPPEIAHGYVEHSVRYQCKNYYKLRTEGDGVYTLNNEKQWINKAVGDKLPECEAVCGKPKNPANPVQ
chain 2: ILGGHLDAKGSFPWQAKMVSHHNLTTGATLINEQWLLTTAKNLFLNHSENATAKDIAPTLTLYVGKKQLVEIEKVVLHPNYSQVDIGLIKLKQKVSVNERVMPICLPSKDYAEVGRVGYVSGWGRNANFKFTDHLKYVMLPVADQDQCIRHYEGSTVPEKKTPKSPVGVQPILNEHTFCAGMSKYQEDTCYGDAGSAFAVHDLEEDTWYATGILSFDKSCAVAEYGVYVKVTSIQDWVQKTIAEN
In the case of B4, the Kd in assay [1] was under 5.4e-08 mM. In assay [2], this molecule gave a dissociation rate constant (koff) of under 5e-05 s⁻¹.

B5: recombinant haptoglobin Hp1S, C1r-LP processed (rHp 1–1) (natural protein)
chain 1: VDSGNDVTDIADDGCPKPPEIAHGYVEHSVRYQCKNYYKLRTEGDGVYTLNNEKQWINKAVGDKLPECEAVCGKPKNPANPVQR
chain 2: ILGGHLDAKGSFPWQAKMVSHHNLTTGATLINEQWLLTTAKNLFLNHSENATAKDIAPTLTLYVGKKQLVEIEKVVLHPNYSQVDIGLIKLKQKVSVNERVMPICLPSKDYAEVGRVGYVSGWGRNANFKFTDHLKYVMLPVADQDQCIRHYEGSTVPEKKTPKSPVGVQPILNEHTFCAGMSKYQEDTCYGDAGSAFAVHDLEEDTWYATGILSFDKSCAVAEYGVYVKVTSIQDWVQKTIAEN
As for B5, the Kd in assay [1] was under 4.8e-08 mM. The same molecule had a koff in assay [2] of under 5e-05 s⁻¹.

Source of the values: article PMC5856381 (2018).
